{"sequences": {"note": "Chains of the proteins cited; added tags and fusions are not shown.", "UniProt Q9NP59, whole entry": "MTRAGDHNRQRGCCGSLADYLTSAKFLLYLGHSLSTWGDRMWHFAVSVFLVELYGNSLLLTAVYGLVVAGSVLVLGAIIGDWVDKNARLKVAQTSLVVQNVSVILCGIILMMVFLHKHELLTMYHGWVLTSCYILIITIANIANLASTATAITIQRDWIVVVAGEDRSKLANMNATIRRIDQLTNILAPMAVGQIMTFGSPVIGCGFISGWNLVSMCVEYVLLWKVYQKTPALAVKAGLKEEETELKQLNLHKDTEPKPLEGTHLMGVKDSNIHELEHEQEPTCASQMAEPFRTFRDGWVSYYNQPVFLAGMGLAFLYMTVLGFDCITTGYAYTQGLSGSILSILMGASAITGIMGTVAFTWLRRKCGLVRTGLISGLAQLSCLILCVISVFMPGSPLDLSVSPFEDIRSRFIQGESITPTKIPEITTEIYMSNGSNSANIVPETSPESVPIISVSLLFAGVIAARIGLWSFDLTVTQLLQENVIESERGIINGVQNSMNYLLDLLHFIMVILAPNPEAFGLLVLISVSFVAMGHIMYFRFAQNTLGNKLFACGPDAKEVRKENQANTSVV"}, "source": "patent US20230226074A1", "about": "“METHODS OF USE FOR PYRIMIDINES AS FERROPORTIN INHIBITORS” (Global Blood Therapeutics, Inc., priority 2020, published 2023)", "target": "human ferroportin (Homo sapiens, UniProt Q9NP59)", "test": "In-vitro ferroportin internalization assay (luciferase reporter)", "assay_type": "cell-based", "conditions": "average pEC50; stably-transfected CHO cell line expressing human ferroportin tagged to a luciferase reporter; 6 h incubation with test compound", "experimental": "The protocol for this assay is generally as described in WO2018/128828, incorporated herein by reference in its entirety. Functional internalization of ferroportin protein was measured using a stably-transfected CHO cell line expressing the human ferroportin tagged to a luciferase reporter. Cells were plated for 24 h in the presence of ferric ammonium citrate (FAC). Ferroportin protein expression was induced with doxycycline for 24 h. The next day, the compounds were added. Test compounds were dissolved in DMSO. Cells were incubated with the test compounds for 6 h, and subsequently luciferase activity was measured using the Nano-Glo Luciferase Assay System and Glomax (Promega, Madison, Wis.). The average pEC50 was determined for the test compounds."}
{"smiles": "COc1ccc(NC(=O)CN(C)c2nc(-c3cc(OC(F)(F)F)ccn3)nc3c2CCC3)cn1", "values": [{"measurement": "pEC50", "result": 7.9}]}
